Data as given in patent publication US20260151384A1, “ISOQUINOLINE DERIVATIVES AS PROTEIN DEGRADERS, E7 DEGRADERS, ANTIVIRALS, TUMOR THERAPEUTICS AND IMMUNE SUPPRESSIVES” (priority 2022, published 2026).

The chains behind the UniProt entries cited, without tags or fusion partners. Where a name states a change or a piece, a line headed by the entry shows the natural chain unless it says otherwise.
UniProt P03129: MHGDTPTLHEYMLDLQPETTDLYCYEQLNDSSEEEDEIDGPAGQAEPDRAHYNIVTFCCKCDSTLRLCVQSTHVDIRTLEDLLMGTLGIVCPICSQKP

Molecular target: HPV16 E7 protein (Human papillomavirus type 16, UniProt P03129)
Experiment: Western blot of E7 steady state level in CaSki cells
Assay type: cell-based
Settings: 6 h treatment, 10 μM & 5 μM
Description: Reagents for Extract preparation and Western Blotting: Extraction Buffer: 2.5× (Tris 0.25M pH6.8, Glycerol 50%, SDS 10%), Gels: 4-12% gradient gels (Bolt® 4-12% Bis-Tris Plus Gel). MES Buffer: 50 mM MES, 50 mM Tris Base, 0.1% SDS, 1 mM EDTA, pH 7.3, Blotting membrane: Nitrocelulose 0.2 μm (Whatman Protran #10401394), 3MM filter paper (e.g. Whatman 3MM Chr, #3030917). Western Detection Reagents: WB Wash Buffer 1× (TBET): 20 mM Tris, 150 mM NaCl, 0.125% Tween20, pH 7.8; skim-milk powder (less than 0.15% fat content). Phosphate buffered saline (PBS) 1×: prepared as 1 L add 8 g sodium chloride (NaCl), 0.2 g potassium chloride (KCl), 1.44 g sodium phosphate, dibasic (Na2HPO4) and 0.24 g potassium phosphate, monobasic (KH2PO4) to 1 L dH2O, pH adjusted to 7.2.
B) For cells in cell culture the following procedure for the preparation of a total cell extract is used. Freshly seeded cells are grown for 24 hours to obtain 65-75% confluency (corresponds for CaSki cells to a plating of approx. 2×10^6 cells/10 cm Ø cell culture dish). Cell culture dishes with medium are out on ice for 5 minutes. […]
Dilute secondary anti-mouse HRP antibody in WB Blocking Buffer according to manufacturer instruction (e.g. CST Anti mouse IgG HRP-linked Ab, #7076, 1:3000). […] The membranes are developed using standard chemo luminescence (ECL) detection systems following imaging with Licor or Viber devices. […]

For `CN1CCC(CN2C(=O)c3ccccc3[C@H](C(=O)Nc3cccc(N4CCN(C)CC4)c3)[C@H]2c2ccc(C(F)(F)F)cc2)CC1` [VSP035, (3S,4S)—N-[3-(4-methylpiperazin-1-yl)phenyl]-2-[(1-methylpiperidin-4-yl)methyl]-1-oxo-3-[4-(trifluoromethyl)phenyl]-1,2,3,4-tetrahydroisoquinoline-4-carboxamide], the “decrease in the HPV16 E7 protein compared with kinase inhibitors (western blot)” value was “strongest decrease”.
